Earlier results as cited in patent US11357232B2, “Methods of improving soil health, growth and vigor of perennial grass communities” (Edaphix, LLC, priority 2013, dated 2022).

Tested on: French marigold
Conditions: in vivo; cited from earlier work

For iron, the “concentration inducing micro-nutrient toxicity” value is listed as 2 mg/L.
